# Cyclic peptide permeability, from CycPeptMPDB

Source: CycPeptMPDB (Li et al. 2023), which took these values from Kelly et al. 2021, doi:10.1021/jacs.0c06115.

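The data file gives no further conditions (lipid, pH, time, direction or concentration), and values from different papers need not be comparable. Other peptides of the study may be missing here. Entries at the database's floor value (log10 P of -10) are not listed.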

PAMPA is the parallel artificial membrane permeability assay, which has no cells and reads passive diffusion.
Permeability is given as log10 of P in cm/s; higher (less negative) is more permeable.

structure (SMILES) | PAMPA (log10 cm/s)
CC(=O)N1CCC[C@@H]1C(=O)N(C)[C@@H](CC(C)C)C(=O)N[C@@H]1C(=O)N[C@@H](CC(C)C)C(=O)N[C@@H](CC(C)C)C(=O)N(C)[C@@H](CC(C)C)C(=O)N(C)[C@H](C)C(=O)N[C@@H](CC(C)C)C(=O)N2CCC[C@H]2C(=O)O[C@@H]1C | -5.84
CC(=O)N1CCC[C@H]1C(=O)N(C)[C@H](CC(C)C)C(=O)N[C@@H]1C(=O)N(C)[C@H](CC(C)C)C(=O)N[C@H](CC(C)C)C(=O)N(C)[C@@H](CC(C)C)C(=O)N(C)[C@H](C)C(=O)N[C@H](CC(C)C)C(=O)N2CCC[C@H]2C(=O)O[C@@H]1C | -5.54
CC(=O)N1CCC[C@H]1C(=O)N(C)[C@H](CC(C)C)C(=O)N[C@@H]1C(=O)N[C@@H](CC(C)C)C(=O)N[C@@H](CC(C)C)C(=O)N[C@@H](CC(C)C)C(=O)N(C)[C@@H](C)C(=O)N[C@@H](CC(C)C)C(=O)N2CCC[C@H]2C(=O)O[C@@H]1C | -6.65
CC(=O)N1CCC[C@H]1C(=O)N(C)[C@H](CC(C)C)C(=O)N[C@@H]1C(=O)N(C)[C@H](CC(C)C)C(=O)N(C)[C@@H](CC(C)C)C(=O)N[C@@H](CC(C)C)C(=O)N[C@@H](C)C(=O)N[C@H](CC(C)C)C(=O)N2CCC[C@@H]2C(=O)O[C@@H]1C | -5.56
CC(=O)N1CCC[C@H]1C(=O)N(C)[C@@H](CC(C)C)C(=O)N[C@@H]1C(=O)N[C@@H](CC(C)C)C(=O)N[C@@H](CC(C)C)C(=O)N(C)[C@@H](CC(C)C)C(=O)N(C)[C@@H](C)C(=O)N[C@H](CC(C)C)C(=O)N2CCC[C@@H]2C(=O)O[C@@H]1C | -6.76
CC(=O)N1CCC[C@H]1C(=O)N(C)[C@@H](CC(C)C)C(=O)N[C@@H]1C(=O)N[C@@H](CC(C)C)C(=O)N[C@@H](CC(C)C)C(=O)N(C)[C@H](CC(C)C)C(=O)N(C)[C@@H](C)C(=O)N[C@@H](CC(C)C)C(=O)N2CCC[C@H]2C(=O)O[C@@H]1C | -5.94
CC(=O)N1CCC[C@H]1C(=O)N(C)[C@H](CC(C)C)C(=O)N[C@@H]1C(=O)N[C@@H](CC(C)C)C(=O)N[C@@H](CC(C)C)C(=O)N(C)[C@H](CC(C)C)C(=O)N[C@@H](C)C(=O)N[C@@H](CC(C)C)C(=O)N2CCC[C@H]2C(=O)O[C@@H]1C | -6.11
CC(=O)N1CCC[C@H]1C(=O)N[C@@H]1C(=O)N(C)[C@H](CC(C)C)C(=O)N[C@@H](CC(C)C)C(=O)N[C@@H](CC(C)C)C(=O)N(C)[C@H](CC(C)C)C(=O)N[C@@H](C)C(=O)N[C@@H](CC(C)C)C(=O)N2CCC[C@@H]2C(=O)O[C@@H]1C | -5.86
CC(=O)N1CCC[C@H]1C(=O)N[C@@H]1C(=O)N[C@H](CC(C)C)C(=O)N[C@H](CC(C)C)C(=O)N(C)[C@H](CC(C)C)C(=O)N(C)[C@@H](CC(C)C)C(=O)N(C)[C@H](C)C(=O)N[C@@H](CC(C)C)C(=O)N2CCC[C@@H]2C(=O)O[C@@H]1C | -5.11
CC(=O)N1CCC[C@H]1C(=O)N[C@@H]1C(=O)N(C)[C@H](CC(C)C)C(=O)N(C)[C@@H](CC(C)C)C(=O)N(C)[C@@H](CC(C)C)C(=O)N(C)[C@H](CC(C)C)C(=O)N(C)[C@@H](C)C(=O)N[C@@H](CC(C)C)C(=O)N2CCC[C@@H]2C(=O)O[C@@H]1C | -5.09
CC(=O)N1CCC[C@H]1C(=O)N[C@@H]1C(=O)N[C@H](CC(C)C)C(=O)N[C@@H](CC(C)C)C(=O)N(C)[C@@H](CC(C)C)C(=O)N[C@@H](CC(C)C)C(=O)N[C@H](C)C(=O)N[C@@H](CC(C)C)C(=O)N2CCC[C@@H]2C(=O)O[C@@H]1C | -6.07
CC(=O)N[C@@H]1C(=O)N2CCC[C@H]2C(=O)N(C)[C@H](CC(C)C)C(=O)N[C@H](CC(C)C)C(=O)N[C@@H](CC(C)C)C(=O)N[C@H](CC(C)C)C(=O)N(C)[C@H](C)C(=O)N[C@@H](CC(C)C)C(=O)N2CCC[C@@H]2C(=O)O[C@@H]1C | -6.64
CC(=O)N1CCC[C@H]1C(=O)N(C)[C@H](CC(C)C)C(=O)N[C@@H]1C(=O)N[C@@H](CC(C)C)C(=O)N(C)[C@@H](CC(C)C)C(=O)N(C)[C@H](CC(C)C)C(=O)N(C)[C@H](C)C(=O)N[C@H](CC(C)C)C(=O)N2CCC[C@@H]2C(=O)O[C@@H]1C | -5.48
CC(=O)N1CCC[C@H]1C(=O)N(C)[C@@H](CC(C)C)C(=O)N[C@@H]1C(=O)N(C)[C@H](CC(C)C)C(=O)N[C@H](CC(C)C)C(=O)N[C@H](CC(C)C)C(=O)N[C@H](C)C(=O)N[C@@H](CC(C)C)C(=O)N2CCC[C@H]2C(=O)O[C@@H]1C | -6.06
CC(=O)N1CCC[C@H]1C(=O)N[C@@H]1C(=O)N[C@H](CC(C)C)C(=O)N[C@@H](CC(C)C)C(=O)N[C@@H](CC(C)C)C(=O)N(C)[C@H](CC(C)C)C(=O)N[C@H](C)C(=O)N[C@@H](CC(C)C)C(=O)N2CCC[C@@H]2C(=O)O[C@@H]1C | -6.30
CC(=O)N1CCC[C@H]1C(=O)N[C@@H]1C(=O)N(C)[C@H](CC(C)C)C(=O)N[C@H](CC(C)C)C(=O)N[C@H](CC(C)C)C(=O)N(C)[C@@H](CC(C)C)C(=O)N(C)[C@H](C)C(=O)N[C@@H](CC(C)C)C(=O)N2CCC[C@@H]2C(=O)O[C@@H]1C | -6.37
CC(=O)N1CCC[C@H]1C(=O)N(C)[C@@H](CC(C)C)C(=O)N[C@@H]1C(=O)N[C@@H](CC(C)C)C(=O)N[C@@H](CC(C)C)C(=O)N[C@H](CC(C)C)C(=O)N(C)[C@@H](C)C(=O)N[C@H](CC(C)C)C(=O)N2CCC[C@@H]2C(=O)O[C@@H]1C | -7.68
CC(=O)N1CCC[C@H]1C(=O)N[C@@H]1C(=O)N(C)[C@H](CC(C)C)C(=O)N[C@@H](CC(C)C)C(=O)N[C@H](CC(C)C)C(=O)N(C)[C@@H](CC(C)C)C(=O)N[C@@H](C)C(=O)N[C@@H](CC(C)C)C(=O)N2CCC[C@@H]2C(=O)O[C@@H]1C | -5.64
CC(=O)N1CCC[C@@H]1C(=O)N(C)[C@@H](CC(C)C)C(=O)N[C@@H]1C(=O)N[C@@H](CC(C)C)C(=O)N[C@@H](CC(C)C)C(=O)N[C@@H](CC(C)C)C(=O)N(C)[C@@H](C)C(=O)N[C@@H](CC(C)C)C(=O)N2CCC[C@H]2C(=O)O[C@@H]1C | -6.40
CC(=O)N1CCC[C@@H]1C(=O)N(C)[C@H](CC(C)C)C(=O)N[C@@H]1C(=O)N[C@H](CC(C)C)C(=O)N[C@H](CC(C)C)C(=O)N(C)[C@H](CC(C)C)C(=O)N(C)[C@@H](C)C(=O)N[C@@H](CC(C)C)C(=O)N2CCC[C@H]2C(=O)O[C@@H]1C | -6.05
CC(=O)N1CCC[C@@H]1C(=O)N(C)[C@@H](CC(C)C)C(=O)N[C@@H]1C(=O)N(C)[C@H](CC(C)C)C(=O)N[C@H](CC(C)C)C(=O)N[C@H](CC(C)C)C(=O)N(C)[C@@H](C)C(=O)N[C@H](CC(C)C)C(=O)N2CCC[C@H]2C(=O)O[C@@H]1C | -5.68
CC(=O)N1CCC[C@H]1C(=O)N[C@@H]1C(=O)N[C@H](CC(C)C)C(=O)N[C@H](CC(C)C)C(=O)N(C)[C@H](CC(C)C)C(=O)N(C)[C@H](CC(C)C)C(=O)N(C)[C@H](C)C(=O)N[C@@H](CC(C)C)C(=O)N2CCC[C@@H]2C(=O)O[C@@H]1C | -4.64

Repeated from above, the 3 entries with the highest PAMPA:

structure (SMILES) | PAMPA (log10 cm/s)
CC(=O)N1CCC[C@H]1C(=O)N[C@@H]1C(=O)N[C@H](CC(C)C)C(=O)N[C@H](CC(C)C)C(=O)N(C)[C@H](CC(C)C)C(=O)N(C)[C@H](CC(C)C)C(=O)N(C)[C@H](C)C(=O)N[C@@H](CC(C)C)C(=O)N2CCC[C@@H]2C(=O)O[C@@H]1C | -4.64
CC(=O)N1CCC[C@H]1C(=O)N[C@@H]1C(=O)N(C)[C@H](CC(C)C)C(=O)N(C)[C@@H](CC(C)C)C(=O)N(C)[C@@H](CC(C)C)C(=O)N(C)[C@H](CC(C)C)C(=O)N(C)[C@@H](C)C(=O)N[C@@H](CC(C)C)C(=O)N2CCC[C@@H]2C(=O)O[C@@H]1C | -5.09
CC(=O)N1CCC[C@H]1C(=O)N[C@@H]1C(=O)N[C@H](CC(C)C)C(=O)N[C@H](CC(C)C)C(=O)N(C)[C@H](CC(C)C)C(=O)N(C)[C@@H](CC(C)C)C(=O)N(C)[C@H](C)C(=O)N[C@@H](CC(C)C)C(=O)N2CCC[C@@H]2C(=O)O[C@@H]1C | -5.11